Assay results: patent publication US20160220542A1, “SYNERGISTIC ACTIVITY OF MODULATORS OF THE NO METABOLISM AND OF NADPH OXIDASE IN THE SENSITISATION OF TUMOR CELLS” (Universitaetsklinikum Freiburg, priority 2010, published 2016)

System: extracellular superoxide anion production of MKN-45 cells
Test: extracellular superoxide anion production of MKN-45 cells (Cu SOD bell curve shift)
Type: cell-based
Settings: lower epothilone concentration; malvidin chloride, artemisinin; 150 mM 3-AT, 8 hours

For `COc1cc(-c2[o+]c3cc(O)cc(O)c3cc2O)cc(OC)c1O`, the “effect on superoxide anion production” value was “did not demonstrate any effect”.
